Where two headings read alike, the source gives them in different places.

The chains behind the UniProt entries cited, without tags or fusion partners. Residues count along the entry.
UniProt P78536, 215-477 S266A/N452Q: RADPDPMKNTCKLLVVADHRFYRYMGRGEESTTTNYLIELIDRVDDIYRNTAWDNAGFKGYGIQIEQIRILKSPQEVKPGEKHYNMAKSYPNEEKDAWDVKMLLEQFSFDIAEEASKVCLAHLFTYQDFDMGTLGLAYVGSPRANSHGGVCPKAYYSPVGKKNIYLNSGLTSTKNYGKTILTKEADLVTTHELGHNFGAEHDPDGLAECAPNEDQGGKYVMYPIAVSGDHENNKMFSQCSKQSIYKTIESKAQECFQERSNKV

The experiment deals with recombinant human TACE catalytic domain (rhTACEc) (Homo sapiens (Human), UniProt P78536, N452Q/S266A). The experiment is described as follows: TACE kinetic FRET assay (cleavage of internally quenched peptide substrate TNF-FRET 2), Ki.
Where [1] appears, read: recombinant human TACE catalytic domain, FRET assay.

For `CCN1CCN(c2ccc(O)c(-c3ccc(C#C[C@]4(CN5Cc6ccc(OC)cc6C5=O)NC(=O)NC4=O)cc3F)n2)CC1` [Compound 976], the Ki (commonly the dissociation constant of the complex between target and ligand, obtained from inhibition or displacement) under setting [1] came to 0.0988 nM.

For the compound `CCN1CCN(Cc2ccc(C#C[C@]3(CN4Cc5ccc(OC)cc5C4=O)NC(=O)NC3=O)cn2)CC1` [Compound 977], the Ki under setting [1] was found to be 0.55 nM.

`COc1ccc2c(c1F)C(=O)N(C[C@@]1(C#Cc3ccc(CN4CCN(c5ccncc5)CC4)nc3)NC(=O)NC1=O)C2` [Compound 979]: under setting [1], the Ki came to 0.77 nM.

For the compound `COc1ccc2c(c1)C(=O)N(C[C@@]1(C#Cc3ccc(CN4CCN(c5nccs5)CC4)cc3)NC(=O)NC1=O)C2` [Compound 980], the Ki under setting [1] was 0.49 nM.

With `COc1ccc2c(c1F)C(=O)N(C[C@@]1(C#Cc3ccc(CN4CCN(c5ccncc5)CC4)cc3)NC(=O)NC1=O)C2` [Compound 981], the Ki under setting [1] was 0.388 nM.

For `COc1ccc2c(c1F)C(=O)N(C[C@@]1(C#Cc3ccc(CN4CCN(C5CCCCC5)CC4)cc3)NC(=O)NC1=O)C2` [Compound 982], the Ki under setting [1] was found to be 0.36 nM.

As for `CCN1CCN(Cc2ccc(C#C[C@]3(CN4Cc5ccc(OC)c(F)c5C4=O)NC(=O)NC3=O)cc2F)CC1` [Compound 983], the inhibition constant (Ki) under setting [1] came out at 0.652 nM.

For `CCN1CCN(C(C)c2ccc(C#C[C@]3(CN4Cc5ccc(OC)c(F)c5C4=O)NC(=O)NC3=O)cc2)CC1` (stereo partly shown) [Compound 984], the inhibition constant (Ki) under setting [1] came to 0.509 nM.

Turning to `COc1ccc2c(c1F)C(=O)N(C[C@]1(C#Cc3ccc(CN4CCN(C5CCCCC5)CC4)cc3)NC(=O)NC1=O)C2` [Compound 985], under setting [1], the Ki turned out to be 46300 nM.

`COc1ccc2c(c1F)C(=O)N(C[C@@]1(C#Cc3ccc(-c4nc(-c5cnn(C)c5)ccc4O)c(F)c3)NC(=O)NC1=O)C2` [Compound 987]: under setting [1], the Ki was found to be 0.0627 nM.

For the compound `CCN1CCN(c2cccc(-c3ccc(C#C[C@]4(CN5Cc6ccc(OC)c(F)c6C5=O)NC(=O)NC4=O)cc3)n2)CC1` [Compound 991], the Ki under setting [1] was 0.28 nM.

Regarding `CCN1CCN(c2cccc(-c3ccc(C#C[C@]4(CN5Cc6ccc(OC)c(F)c6C5=O)NC(=O)NC4=O)cc3F)n2)CC1` [Compound 992], the Ki under setting [1] was determined as 0.35 nM.

Take `COc1ccc2c(c1F)C(=O)N(C[C@@]1(C#Cc3ccc(-c4cccc(N5CCN(C6CCCCC6)CC5)n4)cc3)NC(=O)NC1=O)C2` [Compound 993]: the inhibitory constant (Ki) under setting [1] turned out to be 0.835 nM.

For the compound `COc1ccc2c(c1F)C(=O)N(C[C@@]1(C#Cc3ccc(-c4cccc(N5CCOCC5)n4)cc3)NC(=O)NC1=O)C2` [Compound 995], under setting [1], the Ki amounted to 0.512 nM.

Consider `COc1ccc2c(c1)C(=O)N(C[C@@]1(C#Cc3ccc(-c4cccc(N5CCSCC5)n4)cc3)NC(=O)NC1=O)C2` [Compound 998], for which the Ki under setting [1] was found to be 3.45 nM.

Regarding `COc1ccc2c(c1)C(=O)N(C[C@@]1(C#Cc3ccc(-c4ccc(-c5cccc(N6CCSCC6)n5)cc4)cc3)NC(=O)NC1=O)C2` [Compound 1000], the Ki under setting [1] came out at 10.3 nM.

`COc1ccc2c(c1F)C(=O)N(C[C@@]1(C#Cc3ccc(-c4nc(-c5cccnc5)ccc4O)cc3)NC(=O)NC1=O)C2` [Compound 1001]: under setting [1], the Ki worked out at 0.0781 nM.

Regarding `COc1ccc2c(c1F)C(=O)N(C[C@@]1(C#Cc3ccc(-c4nc(N5CCC(=O)CC5)ccc4O)cc3)NC(=O)NC1=O)C2` [Compound 1003], under setting [1], the Ki is 0.0826 nM.

`COc1ccc2c(c1)C(=O)N(C[C@@]1(C#Cc3ccc(-c4ncccc4OC(=O)C(C)(C)C)cc3)NC(=O)NC1=O)C2` [Compound 1008]: the Ki under setting [1] was determined as 0.0762 nM.

`COc1ccc2c(c1)C(=O)N(C[C@@]1(C#Cc3ccc(-c4cnccc4C)nc3)NC(=O)NC1=O)C2` [Compound 1100]: the Ki under setting [1] stood at 0.52 nM.

Consider `COc1ccc2c(c1)C(=O)N(C[C@@]1(C#Cc3ccc(-c4cnccc4OC)nc3)NC(=O)NC1=O)C2` [Compound 1105], for which, under setting [1], the Ki was found to be 0.92 nM.

With `COc1ccc2c(c1)C(=O)N(C[C@@]1(C#Cc3ccc(C4(CNS(C)(=O)=O)NC(=O)NC4=O)cc3)NC(=O)NC1=O)C2` (stereo partly shown) [Compound 1110], the Ki under setting [1] came to 0.338 nM.

On to `COc1ccc2c(c1)C(=O)N(C[C@@]1(C#Cc3ccc(-n4cnc(CCNC(C)=O)c4)cc3)NC(=O)NC1=O)C2` [Compound 1120], for which, under setting [1], the Ki was determined as 0.52 nM.

As for `COc1ccc2c(c1)C(=O)N(C[C@@]1(C#Cc3ccc(-n4cnc(CCNC(C)=O)c4)nc3)NC(=O)NC1=O)C2` [Compound 1130], the Ki under setting [1] came to 0.6 nM.

For `COc1ccc2c(c1)C(=O)N(C[C@@]1(C#Cc3ccc(C4=NCCN4)c(C)c3)NC(=O)NC1=O)C2` [Compound 1140], under setting [1], the Ki amounted to 0.75 nM.

For `COc1ccc2c(c1)C(=O)N(C[C@@]1(C#Cc3ccc(N4CCNC4=O)cc3)NC(=O)NC1=O)C2` [Compound 1150], the Ki under setting [1] was found to be 0.33 nM.

Consider `COc1ccc2c(c1)C(=O)N(C[C@@]1(C#Cc3ccc(-n4cncn4)cc3)NC(=O)NC1=O)C2` [Compound 1170], for which the Ki under setting [1] amounted to 0.51 nM.

Regarding `COc1ccc2c(c1)C(=O)N(C[C@@]1(C#Cc3ccc(-c4cccc(C)c4O)nc3)NC(=O)NC1=O)C2` [Compound 1300], the Ki under setting [1] amounted to 3.54 nM.

For the compound `COc1ccc2c(c1)C(=O)N(C[C@@]1(C#Cc3ccc(-c4ccc(C)nc4O)nc3)NC(=O)NC1=O)C2` [Compound 1301], the Ki under setting [1] was 0.27 nM.

As to `COc1ccc2c(c1)C(=O)N(C[C@@]1(C#Cc3ccc(-c4c(C)n[nH]c4N)cc3)NC(=O)NC1=O)C2` [Compound 1303], the Ki under setting [1] is 0.36 nM.

On to `COC(=O)c1scc(-c2ccc(C#C[C@]3(CN4Cc5ccc(OC)cc5C4=O)NC(=O)NC3=O)cc2)c1O` [Compound 1305], for which the inhibition constant (Ki) came to 1.71 nM.

Take `COc1ccc2c(c1)C(=O)N(C[C@@]1(C#Cc3ccc(Nc4c(NCCN5CCOCC5)c(=O)c4=O)cc3)NC(=O)NC1=O)C2` [Compound 1306]: under setting [1], the inhibition constant Ki came out at 0.19 nM.

For the compound `COc1ccc2c(c1)C(=O)N(C[C@@]1(C#Cc3ccc(Nc4c(N)c(=O)c4=O)cc3)NC(=O)NC1=O)C2` [Compound 1308], the Ki under setting [1] came to 0.19 nM.

Consider `COc1ccc2c(c1F)C(=O)N(C[C@@]1(C#Cc3ccc(/C(=N/O)N4CCNC[C@@H]4C)c(F)c3)NC(=O)NC1=O)C2` [Compound 1309], for which the Ki stood at 0.19 nM.

In the case of `COc1ccc2c(c1F)C(=O)N(C[C@@]1(C#Cc3cc(F)cnc3Cl)NC(=O)NC1=O)C2` [Compound 1312], the Ki under setting [1] came to 0.2 nM.

As for `COc1ccc2c(c1F)C(=O)N(C[C@@]1(C#Cc3ccc(C4(C#N)CCN(C)CC4)cc3)NC(=O)NC1=O)C2` [Compound 1313], under setting [1], the Ki came to 0.28 nM.

For `COc1ccc2c(c1)C(=O)N(C[C@@]1(C#Cc3ccc(-c4ccc(F)cc4O)nc3)NC(=O)NC1=O)C2` [Compound 1316], the Ki under setting [1] came to 1.28 nM.

With `COc1ccc2c(c1F)C(=O)N(C[C@@]1(C#Cc3ccc(N4C(=O)NC5(CC5)C4=O)c(F)c3)NC(=O)NC1=O)C2` [Compound 1317], under setting [1], the Ki stood at 0.34 nM.

As to `COc1ccc2c(c1)C(=O)N(CC1(C#Cc3cccc4c3CCC43NC(=O)NC3=O)NC(=O)NC1=O)C2` (stereo not shown) [Compound 1318], the inhibition constant Ki under setting [1] was 0.53 nM.

With `CCN1CCN(C(=O)C2CC(=O)N(c3ccc(C#C[C@]4(CN5Cc6ccc(OC)cc6C5=O)NC(=O)NC4=O)cc3)C2)CC1` (stereo partly shown) [Compound 1319], the Ki under setting [1] is 1.2 nM.

As to `COc1ccc2c(c1)C(=O)N(C[C@@]1(C#Cc3nc(N4CC[C@H](O)C4=O)ccc3OC)NC(=O)NC1=O)C2` [Compound 1504], the Ki stood at 0.98 nM.

As for `COc1ccc2c(c1)C(=O)N(C[C@@]1(C#Cc3ccc(-c4noc(C(C)C)n4)cc3)NC(=O)NC1=O)C2` [Compound 1505], the Ki came out at 0.92 nM.

Consider `COc1ccc2c(c1)C(=O)N(C[C@@]1(C#Cc3nc(N4C(=O)CCC4C)ccc3OC)NC(=O)NC1=O)C2` (stereo partly shown) [Compound 1506], for which, under setting [1], the Ki turned out to be 1.53 nM.

For `COCCN1CCN(c2ccc(OC)c(C#C[C@]3(CN4Cc5ccc(OC)cc5C4=O)NC(=O)NC3=O)n2)CC1` [Compound 1507], under setting [1], the inhibition constant (Ki) came to 1.77 nM.

Turning to `COc1ccc(N2CCC2=O)nc1C#C[C@]1(CN2Cc3ccc(OC)c(F)c3C2=O)NC(=O)NC1=O` [Compound 1508], under setting [1], the Ki worked out at 0.426 nM.

On to `COc1ccc2c(c1)C(=O)N(C[C@@]1(C#Cc3ccc(N4CCCCC4)nc3)NC(=O)NC1=O)C2` [Compound 1509], for which the Ki under setting [1] amounted to 0.19 nM.

With `COc1ccc2c(c1)C(=O)N(C[C@@]1(C#Cc3nc(-c4cnc(N(C)C)nc4)ccc3OC)NC(=O)NC1=O)C2` [Compound 1510], the Ki under setting [1] is 0.93 nM.

Turning to `COc1ccc2c(c1)C(=O)N(C[C@@]1(C#Cc3nc(-c4ccc(N5CCNCC5)nc4)ccc3OC)NC(=O)NC1=O)C2` [Compound 1511], under setting [1], the Ki was found to be 0.62 nM.

For the compound `COc1ccc2c(c1)C(=O)N(C[C@@]1(C#Cc3nc(-c4ccc(S(=O)(=O)NC5CC5)cc4)ccc3OC)NC(=O)NC1=O)C2` [Compound 1512], the Ki under setting [1] was 0.9 nM.

As to `COc1ccc2c(c1)C(=O)N(C[C@@]1(C#Cc3ccc(C(CN)N4CCC(NC(=O)OC(C)(C)C)C4)cc3)NC(=O)NC1=O)C2` (stereo partly shown) [Compound 1703], the inhibition constant (Ki) under setting [1] was found to be 0.52 nM.

Consider `COc1ccc2c(c1)C(=O)N(C[C@@]1(C#Cc3ccc(C(CN)N4CCC(N)C4)cc3)NC(=O)NC1=O)C2` (stereo partly shown) [Compound 1705], for which, under setting [1], the Ki came to 0.56 nM.

`COc1ccc2c(c1F)C(=O)N(C[C@@]1(C#Cc3ccc(N4CCNCC4)cc3)NC(=O)NC1=O)C2` [Compound 1706]: the inhibition constant (Ki) under setting [1] came out at 0.38 nM.

Turning to `COc1ccc2c(c1)C(=O)N(C[C@@]1(C#Cc3cncc(-c4ccc(O)c(-c5cn[nH]c5)n4)c3)NC(=O)NC1=O)C2` [Compound 1707], the Ki under setting [1] was determined as 0.32 nM.

`COc1ccc2c(c1)C(=O)N(C[C@@]1(C#Cc3nc(-c4n[nH]c(=O)n4C4CCN(C)CC4)ccc3OC)NC(=O)NC1=O)C2` [Compound 1900]: the inhibition constant (Ki) under setting [1] amounted to 3.71 nM.

For `CCN1CCN(C(=O)C2CCC(=O)N2c2ccc(C#C[C@]3(CN4Cc5ccc(OC)cc5C4=O)NC(=O)NC3=O)cc2)CC1` (stereo partly shown) [Compound 1901], under setting [1], the Ki stood at 0.13 nM.

With `CCN1CCN(C(=O)C2CCC(=O)N2c2ccc(C#C[C@]3(CN4Cc5ccc(OC)c(F)c5C4=O)NC(=O)NC3=O)cc2)CC1` (stereo partly shown) [Compound 1903], the inhibitory constant (Ki) under setting [1] was determined as 0.23 nM.

As for `COc1ccc2c(c1F)C(=O)N(C[C@@]1(C#Cc3ccc(N4C(=O)CCC4C(=O)NC4CC4)cc3)NC(=O)NC1=O)C2` (stereo partly shown) [Compound 1904], under setting [1], the Ki was 0.38 nM.

Take `COc1ccc2c(c1)C(=O)N(C[C@@]1(C#Cc3ccc(N4C(=O)CCC4C(=O)N4CCN(C)CC4)cc3)NC(=O)NC1=O)C2` (stereo partly shown) [Compound 1905]: the Ki under setting [1] was 0.24 nM.
